# Assay results as given in PubChem BioAssay (NCATS).
# The list shows a part of the results, in another mix than the full data. Inconclusive results are not listed. The source made the active and inactive calls. Calls follow the shape of the dose curve; as a rule, active = well fitted curve in the direction sought with a large enough effect; inconclusive = small, poorly fitted or top-dose-only effect, or another doubt; inactive = no such curve, though single readings can be large; an effect the other way counts as inactive or inconclusive.
# What was measured:
# [1] = Quantitative High-Throughput drug screen in 47 multiple myeloma cell lines against the NCATS MIPE library collection: ARP1_JJKsccF8 cell viability assay (AID 1918928; also: nearly all actives have a fitted effect of over 40% in size); settings: ARP1 myeloma cells viability, CellTiter-Glo ATP, 48 h; at 45.8 µM (top of the series)
# [2] = Quantitative High-Throughput drug screen in 47 multiple myeloma cell lines against the NCATS MIPE library collection: Karpas620_DSMZ cell viability assay (AID 1918959); settings: Karpas620 myeloma viability, CellTiter-Glo ATP luminescence, 48 h; also: potency is read from the fitted curve at half-maximal effect; nearly all actives have a fitted effect of over 30% in size
# [3] = Quantitative High-Throughput drug screen in 47 multiple myeloma cell lines against the NCATS MIPE library collection: KMS12PE_JCRB cell viability assay (AID 1918972); settings: KMS12PE myeloma viability, CellTiter-Glo ATP, 48 h; also: potency is read from the fitted curve at half-maximal effect; nearly all actives have a fitted effect of over 30% in size
# [4] = Quantitative High-Throughput drug screen in 47 multiple myeloma cell lines against the NCATS MIPE library collection: MOLP8_DSMZ cell viability assay (AID 1918977); settings: MOLP8 myeloma viability, CellTiter-Glo ATP luminescence, 48 h; at 45.8 µM (top of the series); also: nearly all actives have a fitted effect of over 45% in size
# [5] = Quantitative High-Throughput drug screen in 47 multiple myeloma cell lines against the NCATS MIPE library collection: NCIH929_DSMZ cell viability assay (AID 1918978); settings: NCI-H929 myeloma viability, CellTiter-Glo ATP, 48 h; at 45.8 µM (top of the series); also: nearly all actives have a fitted effect of over 35% in size
# [6] = Quantitative High-Throughput drug screen in 47 multiple myeloma cell lines against the NCATS MIPE library collection: MM1R_ATCC cell viability assay (AID 1918981); settings: MM1R multiple myeloma cells, CellTiter-Glo viability, 48 h; at 45.8 µM (top of the series); also: nearly all actives have a fitted effect of over 35% in size
# [7] = Quantitative High-Throughput drug screen in 47 multiple myeloma cell lines against the NCATS MIPE library collection: KMS28PE_JCRB cell viability assay (AID 1918983); settings: KMS28PE multiple myeloma viability, CellTiter-Glo ATP, 48 h; at 45.8 µM (top of the series); also: nearly all actives have a fitted effect of over 35% in size
# [8] = Quantitative High-Throughput drug screen in 47 multiple myeloma cell lines against the NCATS MIPE library collection: KMS34_JCRB cell viability assay (AID 1918985); settings: KMS34 myeloma viability, CellTiter-Glo ATP luminescence, 48 h; at 45.8 µM (top of the series); also: nearly all actives have a fitted effect of over 40% in size
# [9] = Quantitative High-Throughput drug screen in 47 multiple myeloma cell lines against the NCATS MIPE library collection: OCIMY7_PLB cell viability assay (AID 1918987); settings: OCI-MY7 myeloma viability, CellTiter-Glo ATP, 48 h; at 45.8 µM (top of the series); also: nearly all actives have a fitted effect of over 65% in size
# In short: (§1)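 500 cells/well per myeloma line exposed to pinned MIPE 4.0 compounds for 48 h at 37 °C, 5% CO2. Viability read as ATP by CellTiter-Glo luminescence, normalised to DMSO-only (100%) and media-only (0%) wells.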
# [10] = Quantitative High-Throughput drug screen in 47 multiple myeloma cell lines against the NCATS MIPE library collection: SKMM1_PLB cell viability assay (AID 1919863); settings: SKMM1 myeloma viability, CellTiter-Glo ATP, 48 h; active compounds read low; also: nearly all actives have a fitted effect of over 35% in size
# [11] = Quantitative High-Throughput drug screen in 47 multiple myeloma cell lines against the NCATS MIPE library collection: U266_ATCC cell viability assay (AID 1919864); settings: U266 myeloma viability, CellTiter-Glo ATP luminescence, 48 h; at 45.8 µM (top of the series); also: nearly all actives have a fitted effect of over 35% in size
# In short: as §1
# [12] = Quantitative High-Throughput drug screen in 47 multiple myeloma cell lines against the NCATS MIPE library collection: VP6_DJ cell viability assay (AID 1919867); settings: ATP luminescence, 48 h; also: potency is read from the fitted curve at half-maximal effect; nearly all actives have a fitted effect of over 40% in size
# In short: as §1
# [13] = Quantitative High-Throughput drug screen in 47 multiple myeloma cell lines against the NCATS MIPE library collection: UTMC2_PLB cell viability assay (AID 1919868); settings: CellTiter-Glo ATP luminescence, 48 h; at 45.8 µM (top of the series); also: nearly all actives have a fitted effect of over 55% in size
# [14] = Quantitative High-Throughput drug screen in 47 multiple myeloma cell lines against the NCATS MIPE library collection: PE2_PLB cell viability assay (AID 1919869); settings: PE2_PLB myeloma cells viability, ATP luminescence, 48 h; at 45.8 µM (top of the series); also: nearly all actives have a fitted effect of over 35% in size
# [15] = Quantitative High-Throughput drug screen in 47 multiple myeloma cell lines against the NCATS MIPE library collection: PCM6_Riken cell viability assay (AID 1919870); settings: CellTiter-Glo ATP, 48 h; also: potency is read from the fitted curve at half-maximal effect; nearly all actives have a fitted effect of over 30% in size
# [16] = Quantitative High-Throughput drug screen in 47 multiple myeloma cell lines against the NCATS MIPE library collection: RPMI8226_ATCC cell viability assay (AID 1919871); settings: RPMI8226 myeloma viability, CellTiter-Glo ATP luminescence, 48 h; also: potency is read from the fitted curve at half-maximal effect; nearly all actives have a fitted effect of over 30% in size
# [17] = Quantitative High-Throughput drug screen in 47 multiple myeloma cell lines against the NCATS MIPE library collection: OPM2_DSMZ cell viability assay (AID 1919872); settings: OPM2 myeloma viability, CellTiter-Glo ATP luminescence, 48 h; at 45.8 µM (top of the series); also: nearly all actives have a fitted effect of over 30% in size
# [18] = Quantitative High-Throughput drug screen in 47 multiple myeloma cell lines against the NCATS MIPE library collection: KMS11_JCRBsus cell viability assay (AID 1919873); settings: KMS11 myeloma viability, CellTiter-Glo ATP luminescence, 48 h; also: potency is read from the fitted curve at half-maximal effect; nearly all actives have a fitted effect of over 50% in size
# [19] = tested on: CRL-7250; assay: Cytotoxic Profiling of Annotated Libraries Using Quantitative High-Throughput Screening (AID 1296008); settings: Five cell lines viability, CellTiter-Glo ATP luminescence, 48-72 h; active compounds read low; also: % is scaled to controls: 0 for no effect and ±100 for the full control effect; nearly all actives have a fitted effect of over 60% in size
# [20] = tested on: HaCat; assay: as above; settings: Five cell lines viability, CellTiter-Glo ATP luminescence, 48-72 h; active compounds read low
# [21] = tested on: KB-3-1; assay: as above; settings: Five cell lines viability, CellTiter-Glo ATP luminescence, 48-72 h, active compounds read low
# [22] = tested on: NIH3T3; assay: as above; settings: Five cell lines viability, CellTiter-Glo ATP luminescence, 48-72 h; active compounds read low
# [23] = tested on: MCC-13; assay: qHTS assay to identify novel small-molecules to repurpose for Merkel cell carcinoma treatment (AID 1296009); settings: MCC and control cell lines, CellTiter-Glo viability, 72 h; at 46 µM (top of the series) unless noted; also: % is scaled to controls: 0 for no effect and ±100 for the full control effect; nearly all actives have a fitted effect of over 60% in size
# [24] = tested on: MCC-26; assay: as above; settings: MCC and control cell lines, CellTiter-Glo viability, 72 h; at 46 µM (top of the series) unless noted
# [25] = tested on: MKL-1; assay: as above; settings: MCC and control cell lines, CellTiter-Glo viability, 72 h; at 46 µM (top of the series) unless noted
# [26] = tested on: MKL-2; assay: as above; settings: MCC and control cell lines, CellTiter-Glo viability, 72 h; at 46 µM (top of the series) unless noted
# [27] = tested on: UISO; assay: as above; settings: MCC and control cell lines, CellTiter-Glo viability, 72 h; at 46 µM (top of the series)
# [28] = tested on: WaGa; assay: as above; settings: MCC and control cell lines, CellTiter-Glo viability, 72 h; at 46 µM (top of the series) unless noted
compound,measurement,setting,value
CCn1c(=O)n([C@@H]2CCN(CC3CCCCCCC3)C[C@@H]2CO)c2ccccc21,viability,[1],inactive: 64%
same,Potency,[2],active: 16.6 µM
same,Potency,[3],active: 18.7 µM
same,viability (% of control),[4],inactive: 84.1%
same,"viability, % of control",[5],inactive: 103%
same,viability (% of control),[6],inactive: 87%
same,"viability, % of DMSO control",[7],inactive: 93%
same,"viability, percent of control",[8],inactive: 105%
same,viability (% of DMSO),[9],inactive: 118%
same,viability,[10],inactive: 98.9%
same,viability (% of DMSO control),[11],inactive: 111%
same,Potency,[12],active: 23.5 µM
same,viability (% of DMSO control),[13],inactive: 127%
same,viability (% of control),[14],inactive: 86.9%
same,Potency,[15],active: 20.9 µM
same,Potency,[16],active: 14.8 µM
same,viability (% of DMSO),[17],inactive: 96.2%
same,Potency,[18],active: 10.5 µM
same,max response,[19],inactive: 3.27%
same,max response,[20],inactive: 1.17%
same,max response,[21],inactive: 4.58%
same,max response,[22],inactive: -10.2%
same,"activity change, negative = cytotoxicity",[23],inactive: 3.09%
same,"activity change, negative = cytotoxicity",[24],inactive: -11%
same,"activity change, negative = cytotoxicity",[25],inactive: -1.75%
same,"activity change, negative = cytotoxicity",[26],inactive: -7.48%
same,"activity change, negative = cytotoxicity",[27],inactive: -12.7%
same,"activity change, negative = cytotoxicity",[28],inactive: -4.02%
